According to patent US20250302981A1, “NOVEL USE OF ANTICANCER AGENT PRODRUG CONJUGATE” (UNIVERSITY OF ULSAN FOUNDATION FOR INDUSTRY COOPERATION, priority 2020, published 2025):

Legend:
Format in all cases: cell-based
[1] = tested on: tumor cell lines with KRAS variant genotype; experiment: Intracellular uptake of human serum albumin, fluorescence microscopy; conditions: KRAS variant: AsPC3, Mia-paca2, Capan-1, panC1, 8988T, PC3, CT26, HCT116, SW480, H2122, A549
Description: (§1) In contrast, it was not found in the tumor cell lines with wild-type KRAS genotype (FIG. 9 and FIG. 10).

[2] = tested on: tumor cell lines with wild-type KRAS genotype; experiment: as above; conditions: wild-type KRAS: BXPC3, Pan02, DU145, HT29, MCF7
Description: as §1

[3] = tested on: tumor cell lines with PTEN protein loss genotype; experiment: Intracellular uptake of FITC-labeled human serum albumin; conditions: PTEN protein loss: BT579, MDA-MB436, H1299
Description: (§2) In contrast, it was not found in those with wild-type PTEN protein genotype (FIG. 12 and FIG. 13).

[4] = tested on: tumor cell lines with wild-type PTEN protein genotype; experiment: as above; conditions: wild-type PTEN: DU145, HT29
Description: as §2

## human serum albumin: fluorescently labeled human serum albumin used for cell uptake
[1]
  intracellular albumin uptake: large amounts of intracellular albumin uptake
[2]
  intracellular albumin uptake: not found
[3]
  intracellular albumin uptake: large amounts of intracellular albumin uptake
[4]
  intracellular albumin uptake: not found
